Test results reported in PubChem BioAssay AID485360 (National Center for Advancing Translational Sciences (NCATS), 2010).
Only a part is listed here, and it is no random draw. Records with an inconclusive call do not appear. Activity calls are given as the source filed them. Calls follow the shape of the dose curve; as a rule, active = well fitted inhibition curve with a large enough effect; inconclusive = small, poorly fitted or top-dose-only effect; inactive = no such curve, though single readings can be large or run the other way.

The chains behind the UniProt entries cited, without tags or fusion partners.
UniProt Q9Y468, whole entry: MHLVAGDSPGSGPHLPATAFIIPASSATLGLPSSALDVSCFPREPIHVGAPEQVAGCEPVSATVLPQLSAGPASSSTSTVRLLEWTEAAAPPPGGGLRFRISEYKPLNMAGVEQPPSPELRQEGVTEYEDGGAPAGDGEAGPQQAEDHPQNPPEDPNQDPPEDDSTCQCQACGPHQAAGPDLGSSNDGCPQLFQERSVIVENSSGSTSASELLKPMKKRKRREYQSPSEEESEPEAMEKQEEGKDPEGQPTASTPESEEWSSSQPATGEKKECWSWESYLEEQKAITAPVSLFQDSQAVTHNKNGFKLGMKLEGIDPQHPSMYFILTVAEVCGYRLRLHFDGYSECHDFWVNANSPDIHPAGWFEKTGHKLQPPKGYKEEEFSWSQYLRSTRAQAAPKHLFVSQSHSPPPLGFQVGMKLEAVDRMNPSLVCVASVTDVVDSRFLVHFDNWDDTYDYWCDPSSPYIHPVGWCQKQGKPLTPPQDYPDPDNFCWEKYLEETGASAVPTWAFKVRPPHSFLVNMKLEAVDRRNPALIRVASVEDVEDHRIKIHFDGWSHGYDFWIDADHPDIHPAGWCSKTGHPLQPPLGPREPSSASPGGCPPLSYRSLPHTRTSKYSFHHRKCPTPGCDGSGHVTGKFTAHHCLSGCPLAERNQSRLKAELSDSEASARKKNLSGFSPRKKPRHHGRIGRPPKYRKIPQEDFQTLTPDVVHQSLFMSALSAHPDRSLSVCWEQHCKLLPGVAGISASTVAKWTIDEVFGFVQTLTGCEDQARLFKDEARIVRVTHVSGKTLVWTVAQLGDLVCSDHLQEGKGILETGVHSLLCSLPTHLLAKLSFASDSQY

Molecular target: Lethal(3)malignant brain tumor-like protein 1 (Homo sapiens) (UniProt Q9Y468)
Experiment: qHTS Assay for the Inhibitors of L3MBTL1; also: nearly all actives have a fitted effect of over 60% in size
Conditions: AlphaScreen L3MBTL1–H3K9me1 peptide binding; at 57.1 µM (top of the series)
% is scaled to controls: 0 for no effect and ±100 for the full control effect.

| SMILES | activity, negative = inhibition |
| --- | --- |
| CCOC(=O)c1ccc(NP(C)(=O)Oc2ccc(OC)cc2)cc1 (stereo not drawn) | inactive: -2.48% |
| CCOP(C)(=S)SCC(=O)NC(C)C(=O)O (stereo not drawn) | inactive: -12.8% |
| Cc1cc(C)cc(OP(C)(=O)Nc2ccc(SC(F)(F)F)cc2)c1 (stereo not drawn) | inactive: 5.57% |
| CP(=O)(NC(=O)Nc1ccccc1)Oc1ccccc1 (stereo not drawn) | inactive: -6.62% |
| CP(=O)(Oc1ccccc1)OC(c1ccccc1)C(F)(F)F (stereo not drawn) | inactive: 25.2% |
| Cc1cccc(C)c1OP(C)(=O)Nc1ccc(SC(F)(F)F)cc1 (stereo not drawn) | inactive: 10.3% |
| CP(=O)(Nc1ccccc1Br)Oc1ccccc1 (stereo not drawn) | inactive: -1.31% |
| CP(=S)(Nn1cnnc1)Oc1ccccc1 (stereo not drawn) | inactive: -3.96% |
| Cc1cc(C)cc(OP(C)(N)=O)c1 (stereo not drawn) | inactive: -11.7% |
| COc1ccccc1OP(C)(=O)Nc1cc(Cl)ccc1C (stereo not drawn) | inactive: 2.72% |
| COc1ccccc1OP(C)(=O)Nc1ccc(C)cc1 (stereo not drawn) | inactive: -5.51% |
| CCOC(=O)c1ccc(NP(C)(=O)Oc2ccccc2)cc1 (stereo not drawn) | inactive: -1.1% |
| Cc1cccc(C)c1OP(C)(N)=O (stereo not drawn) | inactive: 14.3% |
| CC(C)(C)c1ccc(OP(C)(=O)Nc2ccc(SC(F)(F)F)cc2)cc1 (stereo not drawn) | inactive: -0.696% |
| COc1cc(C(=O)NCC2(N3CCOCC3)CCCCC2)ccc1OCC(C)C | inactive: 1.16% |
| O=[N+]([O-])c1cc([N+](=O)[O-])c(Nc2cccnc2)c([N+](=O)[O-])c1 | inactive: -9.97% |
| CCN(CC)CCCOC(=O)C(O)(c1ccccc1)c1ccccc1 | inactive: -17.4% |
| CP(=O)(Nc1cccc(Br)c1)Oc1ccccc1 (stereo not drawn) | inactive: -26.1% |
| CCOC(=O)c1ccc(NP(C)(=O)Oc2cc(C)cc(C)c2)cc1 (stereo not drawn) | inactive: 2.38% |
| COc1cc(C(=O)NCC2(N3CCOCC3)CCCCC2)cc(Cl)c1OC(C)C | inactive: 13.3% |
| CC1=NCCc2c1[nH]c1ccccc21.O=[N+]([O-])c1cc([N+](=O)[O-])c(O)c([N+](=O)[O-])c1 | inactive: -1.34% |

| SMILES | activity, negative = inhibition |
| --- | --- |
| CCCOc1ccc(NP(C)(=O)Oc2ccc(Cl)cc2)cc1 (stereo not drawn) | inactive: -10.3% |
| CP(=O)(Nc1ccc(SC(F)(F)F)cc1)Oc1ccccc1 (stereo not drawn) | inactive: 7.28% |
| COc1ccccc1OP(C)(=O)Nc1c(C)cccc1C (stereo not drawn) | inactive: 5.18% |
| CN1CCCCC1COC(=O)C1(O)c2ccccc2CCc2ccccc21 (stereo not drawn) | inactive: -7.45% |
| CN(C)C1(CNC(=O)c2ccc(S(C)(=O)=O)cc2)CCCCC1 | inactive: 8% |
| Cc1nc2ccc3ccccc3c2s1.O=[N+]([O-])c1cc([N+](=O)[O-])c(O)c([N+](=O)[O-])c1 | inactive: 7.74% |
| O=[N+]([O-])c1cc([N+](=O)[O-])c(-n2nnc3ccccc32)c([N+](=O)[O-])c1 | inactive: 2.23% |
| Cc1ccccc1NP(C)(=O)Nc1ccccc1C | inactive: -3.19% |
| CP(=O)(Nc1ccc2c(c1)OCCO2)Oc1ccccc1 (stereo not drawn) | inactive: 1.66% |
| CCOP(C)(=S)SCC(=O)NC(C)(CC)C(=O)O (stereo not drawn) | inactive: 6.79% |
| CP(=O)(Nc1ccc(SC(F)(F)F)cc1)Oc1ccc(F)cc1 (stereo not drawn) | inactive: 1.12% |
| O=[N+]([O-])c1ccc(OP2(=O)COCCO2)cc1 (stereo not drawn) | inactive: 4.98% |
| Cc1cc(-c2cccc3ccccc23)c(C)cn1.O=[N+]([O-])c1cc([N+](=O)[O-])c(O)c([N+](=O)[O-])c1 | inactive: 13.7% |
| CN(C)CCOC(=O)C(O)(c1ccccc1)C1CCCCC1 (stereo not drawn) | inactive: 10.9% |
| COc1ccc(OP(C)(=O)Nc2cccc(Br)c2)cc1 (stereo not drawn) | inactive: 2.82% |
| CP(=O)(Nc1ccccc1)Oc1ccc(F)cc1 (stereo not drawn) | inactive: -0.533% |
| CCCCCOc1ccc(NP(C)(=O)Oc2ccc(Cl)cc2Cl)cc1 (stereo not drawn) | inactive: -14.1% |
| CCN(CC)CCCOC(=O)C(O)(c1ccccc1)C1CCCCC1 (stereo not drawn) | inactive: -1.98% |
| CCOC(=O)c1ccc(NP(C)(=O)Oc2ccc(F)cc2)cc1 (stereo not drawn) | inactive: -4.61% |
| COc1ccc(OP(C)(=O)Nc2ccc(SC(F)(F)F)cc2)cc1 (stereo not drawn) | inactive: 7.74% |
| O=C(OCCN1CCN(CCOCc2ccccc2)CC1)C(O)(c1ccccc1)c1ccccc1 | inactive: 11.8% |

| SMILES | activity, negative = inhibition |
| --- | --- |
| CP(=O)(Nc1ccccc1F)Oc1ccccc1 (stereo not drawn) | inactive: 5.33% |
| CC(C)c1ccc(OP(C)(=O)Nc2ccc(SC(F)(F)F)cc2)cc1 (stereo not drawn) | inactive: 7.82% |
| COc1ccccc1OP(C)(=O)Nc1ccc(C)cc1C (stereo not drawn) | inactive: -3.55% |
| CP(=O)(Nc1ccccn1)Oc1ccccc1 (stereo not drawn) | inactive: -7.47% |
| CCc1ccc(OP(C)(=O)O)cc1 | inactive: -12.9% |
| Cc1c(NP(C)(=O)Oc2ccc(C(C)C)cc2)c(=O)n(-c2ccccc2)n1C (stereo not drawn) | inactive: 7.67% |
| O=[N+]([O-])c1cc([N+](=O)[O-])c(Nc2ccccn2)c([N+](=O)[O-])c1 | inactive: -24.4% |
| CP(=O)(Nc1ccc(Cl)cc1Cl)Oc1ccccc1 (stereo not drawn) | inactive: 16.8% |
| CP(=O)(OCCOc1ccccc1)OCCOc1ccccc1 | inactive: 12.2% |
| Cc1nc2ccc3ccccc3c2o1.O=[N+]([O-])c1cc([N+](=O)[O-])c(O)c([N+](=O)[O-])c1 | inactive: -6.54% |
| COc1ccccc1OP(C)(=O)Nc1ccc(C)c(C)c1 (stereo not drawn) | inactive: 0.857% |
| COc1ccc(OP(C)(=O)Nc2ccccc2Br)cc1 (stereo not drawn) | inactive: 2.9% |
| Cc1cc(C)cc(OP(C)(=O)Nc2cccc(C(F)(F)F)c2)c1 (stereo not drawn) | inactive: -2.01% |
| CCOC(=O)c1ccc(NP(C)(=O)Oc2ccc(Cl)cc2)cc1 (stereo not drawn) | inactive: 2.06% |
| CP(=O)(Nc1ccc(Cl)cc1)Oc1ccc(F)cc1 (stereo not drawn) | inactive: 4.87% |
| O=C(OCCCN1CCCC1)C(O)(c1ccccc1)C1CCCCC1 (stereo not drawn) | inactive: -63.5% |
| COc1ccccc1OP(C)(=O)Nc1c(C)n(C)n(-c2ccccc2)c1=O (stereo not drawn) | inactive: 11.4% |
| CCc1ccc(OP(C)(=O)Nc2cccnc2)cc1 (stereo not drawn) | inactive: 6.46% |
| CP(=O)(Oc1ccccc1)N1CCOC1=O (stereo not drawn) | inactive: 2.79% |
| COc1ccc(OP(C)(=O)Nc2ccc(Br)cc2)cc1 (stereo not drawn) | inactive: -3.01% |
| CCN(CC)CC(O)COC(=O)C(O)(c1ccccc1)C1CCCCC1 (stereo not drawn) | inactive: 0.655% |
